Each structure is given as a SMILES string.

The first assay relates to P. berghei blood stages. As to conditions: Pb-infected mice, single oral 50 mg/kg dose 1 day PI, compared to untreated animals.
For the compound `COC(=O)c1c[nH]c2cc(CCN3CCN(Cc4ccccc4)CC3)ccc2c1=O` [8ad, Methyl 7-(2-(4-Benzylpiperazin-1-yl)ethyl)-4-oxo-1,4-dihydroquinoline-3-carboxylate], the “% inhibition day 6 PI” value is recorded as “no inhibition”. As for `COC(=O)c1c[nH]c2cc(N3CCN(Cc4ccccc4)CC3)c(OC)cc2c1=O` [8h, Methyl 7-(4-Benzylpiperazin-1-yl)-6-methoxy-4-oxo-1,4-dihydroquinoline-3-carboxylate], the “% inhibition day 6 PI” value is recorded as “no inhibition”. Still for that read-out and setting: under `COC(=O)c1c[nH]c2cc(CN3CCN(Cc4ccc5c(c4)OCO5)CC3)ccc2c1=O` [8m, Methyl 7-((4-(Benzo[d][1,3]dioxol-5-ylmethyl)piperazin-1-yl)-methyl)-4-oxo-1,4-dihydroquinoline-3-carboxylate] stands “no inhibition”; under `COC(=O)c1c[nH]c2cc(CN3CCN(c4ccc(OC)cc4)CC3)c(C)cc2c1=O` [8t, Methyl 7-((4-(4-Methoxyphenyl)piperazin-1-yl)methyl)-6-methyl-4-oxo-1,4-dihydroquinoline-3-carboxylate], “no inhibition”.

Another assay has as its system P. falciparum TM90-C2B. To be noted: RI = EC50 TM90-C2B/EC50 W2.
Turning to `Cc1[nH]c2cc(CN3CCN(c4ccc(F)cc4)CC3)ccc2c(=O)c1Br` [8an, 3-Bromo-7-((4-(4-Fluorophenyl)piperazin-1-yl)methyl)-2-methylquinolin-4(1H)-one], the “RI (resistance index)” value was found to be 1.0. On the same count and under the same terms, under `COC(=O)c1c[nH]c2cc(CN3CCN(c4ccc(C(F)(F)F)cc4)CC3)ccc2c1=O` [8p, Methyl 4-Oxo-7-((4-(4-(trifluoromethyl)phenyl)piperazin-1-yl)-methyl)-1,4-dihydroquinoline-3-carboxylate] stands 375; under `COC(=O)c1c[nH]c2cc(CN3CCN(c4ccc(F)cc4)CC3)c(C)cc2c1=O` [8u, Methyl 7-((4-(4-Fluorophenyl)piperazin-1-yl)methyl)-6-methyl-4-oxo-1,4-dihydroquinoline-3-carboxylate], 417; under `COC(=O)c1c[nH]c2cc(CN3CCN(Cc4ccccc4)CC3)c(OC)cc2c1=O` [8x, Methyl 7-((4-Benzylpiperazin-1-yl)methyl)-6-methoxy-4-oxo-1,4-dihydroquinoline-3-carboxylate], greater than 364.

The values are drawn from PMC6610884 (Journal of medicinal chemistry, 2018).
